PMC2363627 (British Journal of Cancer, 2001)

Test: Plasma pharmacokinetics of oral paclitaxel 120 mg/m2 combined with 1000 mg oral GF120918 in cancer patients (HPLC, non-compartmental)
Conditions: mean SD, n = 6; oral 120 mg/m2 + GF120918 1000 mg
Source text: Furthermore, oral administration may enable development of chronic treatment schedules resulting in sustained plasma concentrations above a pharmacological relevant threshold level. […] PATIENTS AND METHODS Patient population Patients with a histologically confirmed cancer refractory to current therapies were eligible for the study. Previous radiotherapy or chemotherapy other than taxoid therapy was allowed, provided that the last treatment was at least four weeks prior to study entry and any resulting toxicities were resolved. […] Patients were not eligible if they suffered from uncontrolled infec- tious disease, neurologic disease, bowel obstruction or sympto- matic brain metastases. Other exclusion criteria were concomitant use of known P-gp inhibitors and chronic use of H2-receptor antagonists or proton pump inhibitors. The study protocol was approved by the Medical Ethics Committee of the Institute and all patients gave written informed consent. […] The oral and i.v. course were randomized. […] Patient evaluation Pretreatment evaluation included a complete medical history and complete physical examination. […] Responses were evaluated according to the WHO criteria (World Health Organization, 1979). […] The time above the threshold concentrations of 0.05 M and 0.1 M (T > 0.05 M, T > 0.1 M) was determined using linear interpola- tion. […]

With `CC(=O)O[C@H]1C(=O)[C@@]2(C)[C@H]([C@H](OC(=O)c3ccccc3)[C@]3(O)C[C@H](OC(=O)[C@H](O)[C@@H](NC(=O)c4ccccc4)c4ccccc4)C(C)=C1C3(C)C)[C@]1(OC(C)=O)CO[C@@H]1C[C@@H]2O` [paclitaxel] the “T > 0.05 M, oral paclitaxel” value was 13.5 9.3 h.
